The values that follow come from ChEMBL document CHEMBL3232887, “Propargyl-linked antifolates are dual inhibitors of Candida albicans and Candida glabrata” (J Med Chem, 2014).

Test [1] can be described thus: Selectivity ratio of IC50 for human DHFR to IC50 for Candida glabrata DHFR.
The nature of test [2]: Selectivity ratio of IC50 for human DHFR to IC50 for Candida albicans DHFR.

On to `CCc1nc(N)nc(N)c1C#CC(C)c1cnc(-c2ccccc2)nc1` (configuration not stated), for which the Ratio IC50 was found to be 8 in test [1] and 5 in test [2].
